# Values of other authors, collected in US20250099434A1, “METHODS OF TREATING AMYLOID RELATED BRAIN DISORDERS USING NOVEL COMPOUNDS AND ANTIBODIES” (T3D Therapeutics, Inc., priority 2022, published 2025).
# Settings: cited from earlier work
substance,measurement,setting,value
ADUHELM: amyloid beta-directed antibody indicated for the treatment of Alzheimer's disease sold by Biogen,"ARIA-E observed, % of patients",10 mg/kg,35%
same,"ARIA-H observed, % of patients",10 mg/kg,21%
same,"clinical symptoms present, % of patients who had an observation of ARIA (-E and/or -H)",10 mg/kg,24%
same,confusion/delirium/altered mental status/disorientation in patients with ARIA,10 mg/kg,5%
same,dizziness/vertigo in patients with ARIA,10 mg/kg,4%
same,headache in patients with ARIA,10 mg/kg,13%
same,nausea in patients with ARIA,10 mg/kg,2%
same,patients with more than one episode of ARIA-E,10 mg/kg,10%
same,"serious symptoms associated with ARIA, % of patients",10 mg/kg,0.3%
same,visual disturbance in patients with ARIA,10 mg/kg,2%
same,AD patients treated who develop ARIA,"Jäkel et al., 2021",≈ 40%
same,"resolution, % of ARIA-E patients",by 12 weeks,68%
same,"resolution, % of ARIA-E patients",by 20 weeks,91%
same,"clinical symptoms resolved, % of patients",during the period of observation,88%
same,incidence of ARIA-E in ApoE ε4 carriers,"human, in vivo",42%
same,incidence of ARIA-E in ApoE ε4 non-carriers,"human, in vivo",20%
same,"resolution, % of ARIA-E patients",overall after detection,98%
same,"maximum radiographic severity mild, % of patients who had ARIA-E",planned dose 10 mg/kg,30%
same,"maximum radiographic severity moderate, % of patients who had ARIA-E",planned dose 10 mg/kg,58%
same,"maximum radiographic severity severe, % of patients who had ARIA-E",planned dose 10 mg/kg,13%

# Like-named read-outs stand apart in the source and are kept apart here.
